According to patent US8053409B2, “Agent for prophylaxis of reflex sympathetic dystrophy after cerebral apoplexy” (Asahi Kasei Pharma Corporation, priority 2006, dated 2011):

What was measured:
[1] = tested on: patients with hemiplegia attributed to cerebrovascular disease (stroke); design: species or system human; details: in vivo
Excerpt: Test subjects were 33 patients with hemiplegia attributed to cerebrovascular disease (stroke) at Brunnstrom stage III or lower in either the upper limb or a finger on admission. Patients already developing RSD (shoulder-hand syndrome) on admission and patients with pain in the shoulder joint or swollen paralyzed limbs were excluded from the test. To 12 of these 33 test subjects, 20 units of elcatonin (Elcitonin Injection 20S; Asahi-Kasei Pharma; hereinafter, referred to as EL) were intramuscularly administered once a week immediately after admission (EL administration group). On the other hand, 21 test subjects were classified into a rehabilitation alone group (control group) and compared with the EL administration group. Physical therapy and therapeutic exercise, occupational therapy, and the management of the paralyzed limbs were performed thoroughly in all the cases. […] EL administration was initiated 11 to 59 days after an attack of stroke (25.8 days on average) and continued until 5 months after the attack of stroke. The same observation period was applied to the control group. […]
Activities of daily living (ADL) were evaluated on the basis of the Barthel Index (BI) and the range of motion (ROM) of shoulder joint. […]

[2] = in vivo

## 1-butyric acid-7-(L-2-aminobutyric acid)-26-L-aspartic acid-27-L-valine-29-L-alanine-calcitonin [elcatonin]
[1]
  Side effects during the test period: no significant or serious side effect was observed
[2]
  Intramuscular dose relative to drip infusion in vein for equal maximum serum concentration: approximately 1.5 times
